Measurements as given in patent publication US6074625A, “Boron-containing hormone analogs and methods of their use in imaging or killing cells having hormone receptors” (Neutron Therapies Inc., priority 1997, dated 2000).

Molecular target: T1, androgen receptors (Rattus norvegicus, UniProt P15207)
T1 construct: from tissue; host or cells: rat ventral prostate cytosol
T1 sequence (P15207 1-902): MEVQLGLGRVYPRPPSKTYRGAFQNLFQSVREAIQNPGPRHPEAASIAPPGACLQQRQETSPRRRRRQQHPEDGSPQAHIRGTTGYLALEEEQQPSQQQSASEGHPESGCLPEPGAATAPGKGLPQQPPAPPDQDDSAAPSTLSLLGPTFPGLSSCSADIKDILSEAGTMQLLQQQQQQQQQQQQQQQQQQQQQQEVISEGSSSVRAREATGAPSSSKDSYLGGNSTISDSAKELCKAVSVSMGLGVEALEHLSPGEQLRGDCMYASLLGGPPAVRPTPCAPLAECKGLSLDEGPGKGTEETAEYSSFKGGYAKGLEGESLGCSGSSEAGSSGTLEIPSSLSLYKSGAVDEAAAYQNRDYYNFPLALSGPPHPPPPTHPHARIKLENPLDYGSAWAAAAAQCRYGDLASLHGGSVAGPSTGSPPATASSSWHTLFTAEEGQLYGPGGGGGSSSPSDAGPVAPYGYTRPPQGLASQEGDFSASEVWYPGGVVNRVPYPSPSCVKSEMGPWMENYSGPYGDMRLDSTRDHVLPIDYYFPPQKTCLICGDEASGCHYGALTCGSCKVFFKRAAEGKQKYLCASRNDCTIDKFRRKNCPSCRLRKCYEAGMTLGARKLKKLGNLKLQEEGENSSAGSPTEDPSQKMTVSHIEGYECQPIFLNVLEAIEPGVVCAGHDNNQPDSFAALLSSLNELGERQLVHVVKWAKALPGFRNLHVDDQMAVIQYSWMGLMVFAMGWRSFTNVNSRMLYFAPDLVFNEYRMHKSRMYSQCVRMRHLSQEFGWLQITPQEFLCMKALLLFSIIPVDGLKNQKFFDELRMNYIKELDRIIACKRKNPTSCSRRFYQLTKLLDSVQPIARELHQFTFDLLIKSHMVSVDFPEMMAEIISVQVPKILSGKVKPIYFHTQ
Assay: Androgen receptor binding: inhibition of [^3 H] mibolerone binding in rat ventral prostate cytosol
Conditions: 2 nM [^3 H] mibolerone, 18 hrs at 4° C
Method: The specificity of the compound of Example I for androgen receptors was determined in a standard androgen receptor assay. See Schilling et al., "The Use of Radioactive 7α, 17α-dimethyl-19-nortestosterone (Mibolerone) in the Assay of Androgen Receptors," The Prostate, 5:581-588 (1984); Traish et al., "Binding of 7α, 17-α-dimethyl- 19-nortestosterone (Mibolerone) to Androgen and Progesterone Receptors in Human and Animal Tissues," Endocrinology 118:1327-1333 (1986). Cytosol prepared from rat ventral prostate was incubated with 2 nM [^3 H] mibolerone (DMNT) for 18 hrs at 4° C. The reaction mixture was then incubated with a hydroxy apatite slurry containing various concentrations of N-(2'-closo-carboranylacetyl)-3-trifluoromethyl-4-nitroaniline 3 from Example 1, as shown below. The mixtures were then filtered through glass fiber filters, washed three times and counted to determine the inhibition of mibolerone binding to the androgen receptors.

N-(2'-closo-carboranylacetyl)-3-trifluoromethyl-4-nitroaniline [Compound 3]
[^3 H] Mibolerone Binding Inhibition, % Inhibition (boron agent 0.01 μM): 3%
[^3 H] Mibolerone Binding Inhibition, % Inhibition (boron agent 0.1 μM): 3%
[^3 H] Mibolerone Binding Inhibition, % Inhibition (boron agent 1 μM): 7%
[^3 H] Mibolerone Binding Inhibition, % Inhibition (boron agent 10 μM): 29%
[^3 H] Mibolerone Binding Inhibition, % Inhibition (boron agent 100 μM): 85%
